This note sets out measurements from PubChem BioAssay AID504408 (Broad Institute, 2011).

The entries are a selection whose mix differs from that of the whole data set. Some salts or complexes appear as unconnected parts, following the source record. Activity calls are given as the source filed them.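 Rule for the calls: active = mean replicate activation of at least 50% with a set share of replicates each reaching 50%; inconclusive = only one of those two conditions met; inactive = mean below 50% and too few replicates reaching it.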

A short description of this experiment: HSF-1 activators, primary screen, NIH3T3-HGL cells, MG132 stress, luminescence, single point (AID 504408).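 Note: 0% = median of the neutral control wells and 100% = twice that signal.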 The note with it: NIH3T3-HGL HSF-1 luciferase reporter, MG132, 8 h; at 9 µM; hits give high values; 100% = twice DMSO control signal. (In general: Reporter assays use an easily measured gene product as a stand-in for the process of interest.)
Turning to `CP(=O)(Nc1ccccc1F)Oc1ccccc1` (configuration not stated), the activation was inactive: -86.3%.

In the case of `CC(C)c1ccc(OP(C)(=O)Nc2ccc(SC(F)(F)F)cc2)cc1` (configuration not stated), the activation was inactive: 27.7%.

Turning to `COc1ccc2c(c1O)-c1c(O)c(OC)cc3c1[C@H](C2)[N+](C)(C)CC3.O=[N+]([O-])c1cc([N+](=O)[O-])c([O-])c([N+](=O)[O-])c1[O-]`, the activation is inactive: -5.06%.

`O=C(OC1CN2CCC1CC2)c1ccc([N+](=O)[O-])cc1` (configuration not stated): the activation was inactive: 5.36%.

In the case of `O=C(OCCN1CCN(CCOCc2ccccc2)CC1)C(O)(c1ccccc1)c1ccccc1`, the activation was inactive: -4.61%.

In the case of `CCOC(=O)c1ccc(NP(C)(=O)Oc2ccc(F)cc2)cc1` (configuration not stated), the activation was inactive: 11.2%.

On to `COc1ccc(OP(C)(=O)Nc2ccc(SC(F)(F)F)cc2)cc1` (configuration not stated), for which the activation was inactive: 45.5%.

With `CP(=O)(Nc1ccccc1)Oc1ccc(F)cc1` (configuration not stated), the activation is inactive: -14.8%.

For the compound `CCCCCOc1ccc(NP(C)(=O)Oc2ccc(Cl)cc2Cl)cc1` (configuration not stated), the activation was inactive: 10.7%.

Regarding `O=[N+]([O-])c1cc([N+](=O)[O-])c(OC2CCCCC2O)c([N+](=O)[O-])c1` (configuration not stated), the activation was inactive: -16%.

For `CCN(CC)CCCOC(=O)C(O)(c1ccccc1)C1CCCCC1` (configuration not stated), the activation is inactive: 7.38%.

Regarding `CN(C)CCOC(=O)C(O)(c1ccccc1)C1CCCCC1` (configuration not stated), the activation is inactive: -0.71%.

With `COc1ccc(NP(C)(=O)Oc2ccccc2OC)cc1` (configuration not stated), the activation was inactive: 2.76%.

Turning to `COc1ccc(OP(C)(=O)Nc2cccc(Br)c2)cc1` (configuration not stated), the activation was inactive: 36.9%.

As for `O=[N+]([O-])c1ccc(OP2(=O)COCCO2)cc1` (configuration not stated), the activation was inactive: 9.93%.

`O=[N+]([O-])c1cc([N+](=O)[O-])c(NCC2CCS(=O)(=O)C2)c([N+](=O)[O-])c1` (configuration not stated): the activation is inactive: -27.1%.

With `Cc1cc(-c2cccc3ccccc23)c(C)cn1.O=[N+]([O-])c1cc([N+](=O)[O-])c(O)c([N+](=O)[O-])c1`, the activation was inactive: -9.03%.

Regarding `CCOP(C)(=S)SCC(=O)NC(C)(CC)C(=O)O` (configuration not stated), the activation is inactive: 20.3%.

On to `CP(=O)(Nc1ccc(SC(F)(F)F)cc1)Oc1ccc(F)cc1` (configuration not stated), for which the activation is inactive: -15.2%.

As to `Cc1ccccc1NP(C)(=O)Nc1ccccc1C`, the activation is inactive: 22.8%.

Turning to `CP(=O)(Nc1ccc2c(c1)OCCO2)Oc1ccccc1` (configuration not stated), the activation is inactive: -18.6%.

Consider `COc1ccccc1OP(C)(=O)Nc1c(C)n(C)n(-c2ccccc2)c1=O` (configuration not stated), for which the activation was inactive: 8.43%.

`O=C(OCCCN1CCCC1)C(O)(c1ccccc1)C1CCCCC1` (configuration not stated): the activation was inactive: -11.6%.

Turning to `CP(=O)(Oc1ccccc1)N1CCOC1=O` (configuration not stated), the activation was inactive: -15.6%.

Regarding `CCc1ccc(OP(C)(=O)Nc2cccnc2)cc1` (configuration not stated), the activation is inactive: -3.96%.

As to `CCN(CC)CC(O)COC(=O)C(O)(c1ccccc1)C1CCCCC1` (configuration not stated), the activation was inactive: 30.2%.

As to `COc1ccc(OP(C)(=O)Nc2ccc(Br)cc2)cc1` (configuration not stated), the activation is inactive: 16.1%.

For `CN(C)C(=O)c1c([N+](=O)[O-])cc([N+](=O)[O-])cc1[N+](=O)[O-]`, the activation is inactive: 48.5%.

As for `COc1ccccc1OP(C)(=O)Nc1ccccc1Br` (configuration not stated), the activation was inactive: 5.83%.

On to `CC(C)(C)c1ccc(OP(C)(=O)O)cc1`, for which the activation is inactive: 5.36%.

Consider `CP(=O)(Nc1ccc(Cl)cc1)Oc1ccc(F)cc1` (configuration not stated), for which the activation is inactive: 16.8%.

Take `CCOC(=O)c1ccc(NP(C)(=O)Oc2ccc(Cl)cc2)cc1` (configuration not stated): the activation was inactive: 15.5%.

Regarding `CP(=O)(OC12CC3CC(CC(C3)C1)C2)OC12CC3CC(CC(C3)C1)C2`, the activation was inactive: -10.2%.

As to `Nc1ccc2c(ccc3cccnc32)n1.O=[N+]([O-])c1cc([N+](=O)[O-])c(O)c([N+](=O)[O-])c1`, the activation was inactive: -9.75%.

For the compound `COc1ccccc1OP(C)(=O)Nc1ccc(C)c(C)c1` (configuration not stated), the activation is inactive: 15.2%.

As for `CCCCCCCCCCCCCCCC1C[N+](C)(C)CCOP(C)(=O)O1` (configuration not stated), the activation is inactive: -3.56%.

Consider `CP(=O)(Nc1ccc(Cl)cc1Cl)Oc1ccccc1` (configuration not stated), for which the activation was inactive: 7.14%.

As to `Cc1nc2ccc3ccccc3c2o1.O=[N+]([O-])c1cc([N+](=O)[O-])c(O)c([N+](=O)[O-])c1`, the activation was inactive: 43.7%.

For the compound `COc1ccc(OP(C)(=O)Nc2ccccn2)cc1` (configuration not stated), the activation is inactive: 12%.

Take `CN(C)CCOC(=O)C(O)(c1ccccc1)C1CCCC1` (configuration not stated): the activation was inactive: 0.824%.

`COc1ccccc1OP(C)(=O)Nc1ccc(Br)cc1` (configuration not stated): the activation was inactive: 4.69%.

Take `CP(=O)(Nc1ccccn1)Oc1ccccc1` (configuration not stated): the activation is inactive: -5.5%.

For the compound `COc1ccccc1OP(C)(=O)Nc1ccc(C)cc1C` (configuration not stated), the activation is inactive: 0.631%.

As to `CCc1ccc(OP(C)(=O)O)cc1`, the activation was inactive: -12%.

As to `Cc1c(NP(C)(=O)Oc2ccc(C(C)C)cc2)c(=O)n(-c2ccccc2)n1C` (configuration not stated), the activation was inactive: -12%.

With `CCN(CC)CCCOC(=O)C(O)(c1ccccc1)c1ccccc1`, the activation was inactive: 7.38%.

For the compound `O=[N+]([O-])c1ccc2c(c1)C=Nc1ccccc1O2`, the activation is inactive: 10.1%.

On to `CC(C)(C)c1ccc(OP(C)(=O)Nc2ccc(SC(F)(F)F)cc2)cc1` (configuration not stated), for which the activation was inactive: 24.3%.

Regarding `Cc1cccc(C)c1OP(C)(N)=O` (configuration not stated), the activation is inactive: -8.73%.

In the case of `O=[N+]([O-])c1cc([N+](=O)[O-])c(Nc2cccnc2)c([N+](=O)[O-])c1`, the activation was inactive: 23.1%.

In the case of `Cc1cc(C)cc(OP(C)(N)=O)c1` (configuration not stated), the activation is inactive: -13.7%.

On to `COc1ccccc1OP(C)(=O)Nc1cc(Cl)ccc1C` (configuration not stated), for which the activation is inactive: 5.52%.

Turning to `COc1ccc(OP(C)(=O)Nc2cccc(F)c2)cc1` (configuration not stated), the activation was inactive: -5.32%.

Turning to `COc1ccccc1OP(C)(=O)Nc1ccc(C)cc1` (configuration not stated), the activation is inactive: -1.42%.

For `Cc1ccc(NP(C)(=O)Oc2ccccc2)c(C)c1` (configuration not stated), the activation was inactive: 13.5%.

Regarding `CCOC(=O)c1ccc(NP(C)(=O)Oc2ccccc2)cc1` (configuration not stated), the activation is inactive: 13.1%.

For the compound `CP(=O)(Nc1ccccc1Br)Oc1ccccc1` (configuration not stated), the activation is inactive: 18.1%.

Consider `COc1ccccc1OP(C)(=O)Nc1ccccc1` (configuration not stated), for which the activation was inactive: -0.746%.

Take `CP(=S)(Nn1cnnc1)Oc1ccccc1` (configuration not stated): the activation was inactive: -4.68%.

With `CP(=O)(NC(=O)Nc1ccccc1)Oc1ccccc1` (configuration not stated), the activation is inactive: -9.84%.

Consider `CCc1ccc(OP(C)(=O)N2CCN(c3ccc([N+](=O)[O-])cc3)CC2)cc1` (configuration not stated), for which the activation is inactive: -0.881%.

On to `Cc1cc(C)cc(OP(C)(=O)Nc2ccc(SC(F)(F)F)cc2)c1` (configuration not stated), for which the activation is inactive: -11%.
